Amino acid sequences for entries named in this document (tags omitted). A change or cut given only in a name is not applied to a line headed by its entry.
UniProt Q02779: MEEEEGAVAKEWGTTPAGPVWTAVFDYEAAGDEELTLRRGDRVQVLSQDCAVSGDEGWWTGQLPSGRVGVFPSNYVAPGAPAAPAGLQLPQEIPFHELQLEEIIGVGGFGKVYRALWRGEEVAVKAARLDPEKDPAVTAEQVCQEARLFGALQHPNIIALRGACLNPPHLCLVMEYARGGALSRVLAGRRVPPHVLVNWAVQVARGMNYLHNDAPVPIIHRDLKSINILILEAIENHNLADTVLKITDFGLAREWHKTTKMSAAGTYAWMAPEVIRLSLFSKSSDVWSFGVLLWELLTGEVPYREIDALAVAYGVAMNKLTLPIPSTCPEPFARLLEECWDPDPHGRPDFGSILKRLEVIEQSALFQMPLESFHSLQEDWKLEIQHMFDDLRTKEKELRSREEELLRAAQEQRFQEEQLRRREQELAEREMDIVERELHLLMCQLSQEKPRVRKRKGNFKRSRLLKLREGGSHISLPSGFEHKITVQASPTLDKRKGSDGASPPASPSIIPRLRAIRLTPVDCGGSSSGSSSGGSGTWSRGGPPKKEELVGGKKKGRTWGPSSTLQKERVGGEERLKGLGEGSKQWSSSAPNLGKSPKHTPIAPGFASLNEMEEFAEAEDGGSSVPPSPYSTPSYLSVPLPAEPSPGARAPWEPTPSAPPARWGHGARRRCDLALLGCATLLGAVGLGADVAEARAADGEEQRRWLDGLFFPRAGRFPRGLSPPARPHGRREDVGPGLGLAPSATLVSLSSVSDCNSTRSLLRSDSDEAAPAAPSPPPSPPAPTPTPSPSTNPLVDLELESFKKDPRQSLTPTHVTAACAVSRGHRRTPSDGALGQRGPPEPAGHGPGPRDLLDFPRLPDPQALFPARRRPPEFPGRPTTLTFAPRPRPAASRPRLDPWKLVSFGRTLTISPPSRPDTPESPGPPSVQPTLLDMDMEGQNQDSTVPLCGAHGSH

According to US20050209299A1, “Inhibition of mixed lineage kinases and uses therefor” (University of Maryland, Baltimore, priority 2004, published 2005):

Assays:
[1] = target: T1, MLK2 (Homo sapiens, UniProt Q02779); experiment: MLK2 activation of JNK1 in transfected cells (immunoblot); assay type: cell-based; settings: GFP-MLK2 + HA-JNK1 co-expressed
T1 construct: expressed in transfected cells; host or cells: HeLa
Method: HeLa, NIH 3T3, HEK293, A549, or MRC-5 cells were grown in a DMEM supplemented with 10% fetal bovine serum (FBS) and penicillin (100 U/ml) and streptomycin (100 μg/ml). Estrogen receptor (ER) negative breast cancer cells, SUM-159, were obtained from the University of Michigan Human Breast Cancer Cell Lines (SUM-Lines) and grown in DMEM+10% FBS. In some experiments, cells were transfected with cDNA (1 μg) for pEGFP (BD Biosciences/Clontech, Palo Alto, Calif.), hemagglutinin (HA)-tagged MLK3, kinase dead mutant MLK3 (MLK3 K144R), GFP-tagged MLK2 (kindly provided by Dr. Donna Dorow), Flag-tagged DLK, or HA-tagged JNK1 using Lipofectamine® (Invitrogen, Carlsbad, Calif.). Transfected cells were harvested 16-24 hours after transfection.
For protein analysis, cells were washed twice with cold phosphate buffered saline (PBS), lysed with 300 μl of tissue lysis buffer (TLB) (20 mM Tris-base, pH 7.4, 137 mM NaCl, 2 mM EDTA, 1% Triton X-100, 25 mM β-glycerophosphate, 2 mM sodium pyrophosphate, 10% glycerol, 1 mM sodium orthovanadate, 1 mM phenylmethysulfonyl fluoride (PMSF), and 1 mM benzamidine) and centrifuged at 20,000×g to clarify lysates. Approximately 20 μg of total protein was separated by SDS-PAGE. […] Immunoreactivity was detected by enhanced chemiluminescence (ECL; Amersham, Buckinghamshire, England).

[2] = system: HeLa cells; experiment: Mitotic index / mitotic stage assay (DAPI) in synchronized HeLa cells; assay type: cell-based; settings: varying concentrations (75, 100, 200 nM)
Method: In some experiments, cells were synchronized by double thymidine block as previously described (18-19). Briefly, cells were incubated for 16 hours with 2 mM thymidine in 10% FBS containing DMEM. The excess thymidine was washed off with Hanks Buffered Saline Solution (HBSS) and cells were released back into the cell cycle with complete medium. After 8 hours, cells were treated a second time with 2 mM thymidine in 10% FBS containing DMEM for another 16 hours to arrest cells at the G1/S-phase boundary. Synchronized cells were then washed with HBSS and released back into the cell cycle and harvested at various time points after G1/S release for analysis. Cell cycle analysis was done by fluorescence activated cell sorting (FACS) as described below. In some experiments, CEP-11004 was added to the synchronized cells 5 hours after release from G1/S block, which corresponded to late S-phase or early G2-phase.
Cells grown on coverslips were synchronized at the G1/S-phase boundary as described in Examples 4-5. In some cases, MLK3 was co-expressed with the pEGFP vector in order to identify transfected cells. […] GFP-positive mitotic cells in prophase, prometaphase, metaphase, anaphase, or telophase were identified, counted, and expressed as a fraction of the total cells counted to determine the mitotic index. Within each experiment, 300 to 350 cells were counted for each condition and time point.

3,9-bis-[(isopropylthio)methyl]-(8R*,9S*, 11S*)-(−)-9-hydroxy-9-methoxycarbonyl-8-methyl-2,3,9,10-tetrahydro-8,11-epoxy-1H,8H,11H-2,7b,11a-triazadibenzo(a,g)cycloocta(cde)trinden-1-one [CEP-11004]
concentration required for significant inhibition of MLK2 activation of JNK1 [1]: greater than 400 nM | mitotic index in MLK3 transfected cells [2]: reduced mitotic index | mitotic index in mock transfected cells [2]: higher levels of mitotic cells
